Laboratory results from US11202833B2, “Methylglyoxal-scavenging cyclic peptides and their use for the prevention and treatment of diseases associated with elevated methylglyoxal levels” (RUPRECHT-KARLS-UNIVERSITÄT HEIDELBERG, priority 2016, dated 2021).

Test: MG scavenging in vitro (MG half-life by HPLC)

CN(C)C(=N)N=C(N)N [Met, metformin]
MG scavenging (in words): slow
